{
  "source": "PubChem BioAssay AID1317",
  "about": "(The Scripps Research Institute Molecular Screening Center, 2008)",
  "note": "Only a part is listed here, and it is no random draw. Active and inactive are the calls of the source.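 The calls were made as follows: active = inhibition above the mean plus 3 SD of solvent-only control wells, limit set per screening run (cut at about 16% in these data); inactive = the rest.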",
  "data": [
    {"assay": "STAT1 reporter inhibitors, IFN-gamma induced, confirmation, counter-screen for STAT3 inhibitor project, cell-based, NIH 3T3, luciferase luminescence (AID 1317);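 also: 0% = DMSO with IFN-gamma and 100% = nifuroxazide control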", "conditions": "NIH 3T3 STAT1-luciferase reporter, at 5.7 µM, stronger effect = higher value", "values": [
      {"smiles": "O=c1c2cc([N+](=O)[O-])ccc2[nH]c2c([N+](=O)[O-])cc([N+](=O)[O-])cc12", "inhibition": "inactive: 15.3%"}
    ]}
  ]
}
